## Measured affinities in a library of Ab-14 light chain variants

Source: Li et al. 2023 (doi:10.1038/s41467-023-39022-2), MIT Lincoln Laboratory and A-Alpha Bio; data file from the FLAb repository.

Binding partner: SARS-CoV-2 spike HR2 peptide, sequence PDVDLGDISGINAS.

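The parent was found by panning a naive human phage display library on the peptide. Designed CDR sequences, proposed from the first random library and measured here. Their group label is 14L_En_HC (En: ensemble of fine-tuned language models; HC: hill climbing; a sequence that several methods proposed may carry one label only). In AlphaSeq, yeast of one mating type display the scFv and yeast of the other type display the target. Mating (16 h, 30 °C) was followed by selection of diploids and sequencing of their barcodes. Scores were corrected for input abundance and mapped to Kd with protein pairs of known affinity run in the same pool. Mating was done six times.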

The variants keep the heavy chain, the linker and the frameworks of Ab-14 (scFv order VH, the linker GGGGSGGGGSGGGGS, VL).
VH: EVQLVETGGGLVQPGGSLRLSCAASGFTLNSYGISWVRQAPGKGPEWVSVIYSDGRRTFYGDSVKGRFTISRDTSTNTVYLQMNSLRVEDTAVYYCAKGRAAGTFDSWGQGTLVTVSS
VL: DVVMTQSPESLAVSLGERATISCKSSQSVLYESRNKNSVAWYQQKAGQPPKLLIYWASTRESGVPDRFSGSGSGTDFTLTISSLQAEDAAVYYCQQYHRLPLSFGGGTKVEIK

The parent's light chain CDRs are KSSQSVLYESRNKNSVA, WASTRES, QQYHRLPLS; each variant's own CDRs replace them letter for letter. Values are log10 of the apparent Kd in nM; lower means stronger binding. "ND" means that the variant was in the library but no mating with the target was seen in that replicate; the authors take this as a sign of poor binding, and no number exists.

| CDR-L1 | CDR-L2 | CDR-L3 | replicates, log10 nM | signal with controls |
|---|---|---|---|---|
| TISQSAHMESHQKNNVA | DLNLRGS | QQYDRLPLS | -0.30 / 0.46 / 0.26 / 0.81 / 0.03 / 0.01 | 0/18 |
| HLGGIMTWESKAKNSVA | QSNTRAE | QQYHRLPLS | 0.70 / 0.37 / 0.36 / 0.49 / 0.51 / 0.52 | 0/18 |
| KLYQMTGIESHAKNSLA | DANRRED | QQYHRLPLS | 0.09 / 0.03 / -0.03 / -0.03 / 0.03 / 0.19 | 2/18 (3.62) |
| MISDLTMYGSMNKNSVA | DLSTRGS | QQYHRLPLS | 0.16 / 0.41 / 0.14 / 0.01 / 0.06 / 0.19 | 4/18 (2.25) |
| KISQVAMTTGKHSNSVA | NAYNRVQ | QQYHRLPLS | 1.57 / 1.69 / 1.14 / 1.44 / 1.30 / 1.51 | 1/18 (2.26) |
| HISMMVGTKGYNKGSVA | NAETRED | QQYHRLPLS | 0.00 / -0.02 / 0.13 / -0.06 / -0.13 / 0.11 | 0/18 |
| KISGYLNHESKAKNNVA | EMVNRES | QQYDRLPLS | 0.36 / 0.37 / 0.46 / 0.01 / 0.17 / 0.61 | 0/18 |
| ALSQSMDMTSRNKNSVA | DLQTREN | QQYHRLPLS | 0.71 / -0.06 / 0.00 / -0.21 / 0.04 / 0.47 | 0/18 |
| KISQMAWYESTWWNAIA | QTSEREE | QQYHRLPLS | 1.59 / 1.42 / 1.11 / 1.44 / 1.70 / ND | 0/18 |
| KLRQVTGYELYNKNSVA | QTSTRAS | QDYHRLPLS | 1.31 / 1.31 / 1.04 / 1.20 / 1.21 / 1.20 | 2/18 (2.79) |
| KLSMSMLMESRHKNNVA | ENSTREE | QHYHRLPLS | ND / ND / ND / 2.72 / ND / ND | 2/18 (2.27) |
| TLSNSMDMTSRNVNSVA | DLTTRGN | QQYHRLPLS | 0.11 / -0.07 / -0.24 / -0.38 / -0.32 / -0.16 | 0/18 |
| MFSQSVMTGSFMRNSVA | QTTTREN | QQYDRLPLS | 0.99 / 1.08 / 0.86 / 0.51 / 0.96 / 0.71 | 1/18 (2.59) |
| IISGSMWMESRNKNSVA | NAETREY | QHYDRLPLS | ND / ND / ND / ND / ND / 3.47 | 1/18 (3.00) |
| KISMLQRYESQNKNNIA | EMSRREN | QQYHRLPLS | 0.08 / 0.11 / 0.14 / 0.23 / -0.05 / 0.08 | 1/18 (4.11) |
| QLYAVQDTTSKNSNNVA | EQSTREN | QQYHRLPLS | 0.65 / 1.27 / 0.58 / 0.43 / 0.64 / 0.74 | 0/18 |
| KISQMVNYESTHLNAVA | QMSTREE | QQYFRLPLS | 0.97 / 0.86 / 0.96 / 0.64 / 0.73 / 0.93 | 3/18 (3.10) |
| KITGMWTFESRNKNSIA | EESTRED | QSYHRLPLS | 1.00 / 0.81 / 0.87 / 0.55 / 0.80 / 1.09 | 1/18 (2.06) |
| HLGGTMTWESKARNSVA | QSNTRAE | QQYHRLPLS | 0.53 / 0.41 / 0.52 / 0.50 / 0.48 / 0.77 | 1/18 (2.69) |
| TISNSFLMENQFKNSVA | QASTRES | QCYDRLPLS | 1.64 / 1.92 / 1.49 / 2.22 / 2.93 / 2.32 | 0/18 |
| KLGSATRFESSNKASIA | DNSTRES | QQYHRLPLS | 1.37 / 1.13 / 1.33 / 0.98 / 0.82 / 0.99 | 4/18 (3.03) |
| IISGSSLMESRNKNSVA | NAETREY | QHYDRLPLS | 1.23 / 1.27 / 1.08 / 1.08 / 1.36 / 1.04 | 3/18 (2.22) |
| KLSVMSSYLSVNKNSVA | EMTTREN | QQYDRLPLS | 1.10 / 0.62 / 0.61 / 0.91 / 0.62 / 0.61 | 2/18 (2.18) |
| MISDLTMYGSRNVNSVA | DLSTRGQ | QQYHRLPLS | 0.11 / -0.14 / -0.14 / -0.27 / -0.26 / -0.21 | 0/18 |
| KISQMYRYEQQNNSSIA | EANTREQ | QSYHRLPLS | 1.92 / 2.01 / 2.07 / 2.76 / 2.96 / 2.47 | 1/18 (3.18) |
| KISQMSSIESITHNSVA | QTSTREK | QQYDRLPLS | 0.24 / 0.19 / 0.57 / 0.15 / 0.50 / 0.43 | 2/18 (2.00) |
| KLRQSTAYLSENKNSVA | ELTTRGN | QQYFRLPLS | 1.21 / 1.01 / 0.71 / 1.01 / 0.63 / 0.99 | 0/18 |
| KYSQNVLIMGRNKNSVA | EMTTREE | QQYDRLPLS | 0.65 / 0.60 / 0.69 / 0.73 / 0.58 / 1.05 | 0/18 |
| MMPQMFEGLSTSKNPVA | QVSTREE | QQYHRLPLS | 0.09 / 0.22 / 0.04 / 0.10 / 0.17 / 0.43 | 0/18 |
| TISMSMNWLTFNKDNIA | EESTRED | QQYDRLPLS | 2.40 / 1.96 / 2.79 / ND / 3.45 / 1.96 | 0/18 |
| KLTVMGLHQSIDKKSIA | ERSTREN | QQYHRLPLS | 0.58 / 0.59 / 0.67 / 0.40 / 0.81 / 0.50 | 0/18 |
| HISMMVGTKGYNKNAVA | NAETRED | QQYHRLPLS | -0.26 / -0.03 / -0.24 / -0.45 / -0.43 / -0.19 | 0/18 |
| KISMLYNYASTNKNNIA | EMTTRES | QHYHRLPLS | 2.60 / 1.30 / 2.52 / 1.51 / 4.34 / ND | 0/18 |
| ILSQSVLMGMHTKNNVA | QATMRFN | QQYHRLPFM | 2.53 / 1.05 / 1.77 / 2.14 / 1.31 / 1.67 | 0/18 |
| KISQMFYYESINKNNVA | QKSTREE | QDYHRLPLS | 0.14 / -0.06 / -0.42 / -0.61 / -0.19 / -0.01 | 0/18 |
| KLSQYVGGESRNKSALA | DNSTRES | QQYHRLPLS | 1.23 / 1.08 / 0.94 / 0.90 / 1.02 / 1.91 | 0/18 |

In the paper, a design with two or fewer of six values counts as a poor binder. Values of this round are not directly comparable with the first-round values of the same sequences. Background: pairings of all light chain designs with three empty control strains gave a value in 4% of cases (median 2.64, 5th percentile 1.59). Values in that range, when seen in few replicates, are hard to tell from nonspecific mating. The control count says in how many pairings with the empty strains this scFv gave a signal, with their mean in brackets.